The results in this text go back to patent US20070191426A1, “Derivatives of 3-aminocarbonylquinoline, pharmaceutical compositions containing them and processes and intermediates for their preparation” (priority 2003, published 2007).

Sequences of proteins named here, by UniProt entry; tags and fusion partners are left off. Residues count along the entry.
UniProt Q07343, 1-564 isoform 2: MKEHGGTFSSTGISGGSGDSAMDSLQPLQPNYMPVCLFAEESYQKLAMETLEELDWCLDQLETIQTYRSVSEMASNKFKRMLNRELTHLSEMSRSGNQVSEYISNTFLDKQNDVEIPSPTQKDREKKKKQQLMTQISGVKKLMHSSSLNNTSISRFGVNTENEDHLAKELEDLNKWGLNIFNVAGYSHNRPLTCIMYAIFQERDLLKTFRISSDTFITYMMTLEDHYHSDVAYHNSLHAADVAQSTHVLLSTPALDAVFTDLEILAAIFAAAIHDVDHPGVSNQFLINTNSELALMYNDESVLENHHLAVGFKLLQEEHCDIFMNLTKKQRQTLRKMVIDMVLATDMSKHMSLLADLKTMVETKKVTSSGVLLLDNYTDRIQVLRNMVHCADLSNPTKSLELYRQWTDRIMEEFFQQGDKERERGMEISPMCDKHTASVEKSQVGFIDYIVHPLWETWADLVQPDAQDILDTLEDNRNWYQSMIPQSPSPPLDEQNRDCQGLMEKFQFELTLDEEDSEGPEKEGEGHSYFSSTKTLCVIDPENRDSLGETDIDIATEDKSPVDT

In experiment [1] the target is PDE5 (human recombinant) (Homo sapiens, UniProt O76074). The experiment in a line: Inhibition of PDE5 activity: radioactive Scintillation Proximity Assay (SPA). The following applies: SPA assay (all Examples). The text has this: Human recombinant PDE5 is disclosed in K. Loughney et al., “Isolation and characterization of cDNAs encoding PDE5A, a human cGMP-binding, cGMP-specific 3′,5′-cyclic nucleotide phosphodiesterase”, Gene, 1998, 216, 139-147.
Inhibition of PDE3, PDE4B, PDE4D, PDE5 or PDE6 Activity: Radioactive Scintillation Proximity Assay (SPA)
The ability of compounds to inhibit catalytic activity at PDE4B or 4D (human recombinant), PDE3 (from bovine aorta) PDE5 (human recombinant) or PDE 6 (from bovine retina) was may be determined by Scintillation Proximity Assay (SPA) in 96-well format. Test compounds (preferably as a solution in DMSO, e.g. 2 microlitre (μl) volume) were preincubated at ambient temperature in Wallac Isoplates (code 1450-514) with PDE enzyme in 50 mM Tris-HCl buffer pH 7.5, 8.3 mM MgCl2, 1.7 mM EGTA, 0.05% (w/v) bovine serum albumin for 10-30 minutes. The enzyme concentration was adjusted so that control rates are linear over the assay incubation period. […] Bound radioactive product was measured using a WALLAC TRILUX 1450 MicroBeta scintillation counter. […] Curves were analyzed using ActivityBase and XLfit (ID Business Solutions Limited, 2 Ocean Court, Surrey Research Park, Guildford, Surrey GU2 7QB, United Kindgom). Results were expressed as pIC50 values.
For orientation: In a scintillation proximity assay essentially only radioactivity close to the scintillant gives light.

The target of experiment [2] is PDE4B (human recombinant) (Homo sapiens, UniProt Q07343). The experiment can be described thus: Inhibition of PDE4B activity: IMAP Fluorescence Polarization (FP) assay. The following applies: FP assay (Example 60).

Consider `CCOC(=O)C1CCN(C(=O)c2cc(C)c3ncc(C(N)=O)c(Nc4ccc(F)c(OC)c4)c3c2)CC1`, for which the “PDE5 mean pIC50” value in experiment [1] is recorded as 4.5. Further, in experiment [2], the “PDE4B mean pIC50” value was found to be 9.0.
